This is an account of results in publication PMC7259601 (PLoS ONE, 2020).

By UniProt entry, the sequences of proteins in these tests, tags left out.
UniProt Q8BW75, whole entry: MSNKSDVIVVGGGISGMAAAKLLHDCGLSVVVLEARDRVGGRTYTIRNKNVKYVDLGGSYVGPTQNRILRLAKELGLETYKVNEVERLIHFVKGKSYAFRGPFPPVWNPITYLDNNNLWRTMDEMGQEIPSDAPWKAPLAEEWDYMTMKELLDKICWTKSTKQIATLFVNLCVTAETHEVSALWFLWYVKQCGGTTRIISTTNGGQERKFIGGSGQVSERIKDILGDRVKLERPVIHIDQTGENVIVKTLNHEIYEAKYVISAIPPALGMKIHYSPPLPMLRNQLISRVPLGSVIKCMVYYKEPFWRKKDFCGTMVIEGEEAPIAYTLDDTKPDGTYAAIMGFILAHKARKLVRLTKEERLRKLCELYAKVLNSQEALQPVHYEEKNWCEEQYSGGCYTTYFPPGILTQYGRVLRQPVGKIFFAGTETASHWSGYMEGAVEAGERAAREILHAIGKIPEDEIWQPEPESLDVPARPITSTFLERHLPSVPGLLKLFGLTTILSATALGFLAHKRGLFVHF

The term ED50 denotes the midpoint of the dose-response relation.

The assay addresses MAO-B (Mus musculus, UniProt Q8BW75). In words: in vivo. As to conditions: po, read-out: ED50 potentiation of PEA-induced symptoms.

As to `C#CCN(C)[C@H](C)Cc1ccccc1` [SLG, selegiline], the ED50 at 25 mg/kg was 8 mg/kg.
